Results: PubChem BioAssay AID1159606 (Sanford-Burnham Center for Chemical Genomics, 2016)
The list shows a part of the results, in another mix than the full data. The source made the active and inactive calls. No stated cut-off is given here; in the data, active means inhibition above about 50%; inactive means the rest.

Assay: blockers of TWEAK-induced Fn14 reporter activity – luciferase reporter cells, uHTS, primary screen (AID 1159606)
Conditions: TWEAK-stimulated Fn14 reporter cells, luciferase luminescence, 8 h; at 10 µM; stronger effect = higher value

Structure (SMILES)	inhibition
Cc1ccc(C(=O)NCC2(N(C)C)CCCCC2)o1	inactive: -13.4%
COc1cc(C(=O)NCC2(N3CCOCC3)CCCCC2)cc(OC)c1C	inactive: -3.02%
CCCCn1nnnc1C(c1ccccc1)N1CCC(n2c(=O)[nH]c3ccccc32)CC1 (stereo not drawn)	inactive: 18.6%
O=C(NCC1(N2CCOCC2)CCCCC1)c1cc(Br)ccc1Cl	inactive: -5.51%
O=c1[nH]c2ccccc2n1C1CCN(C(c2cccs2)c2nnnn2C2CCCCC2)CC1 (stereo not drawn)	inactive: 23.6%
O=c1[nH]c2ccccc2n1C1CCN(C(c2ccnc3ccccc23)c2nnnn2C2CCCC2)CC1 (stereo not drawn)	inactive: -12.3%
COc1ccc(C(=O)NCC2(N3CCOCC3)CCCCC2)cc1OC	inactive: -1.79%
CCOC(=O)N1CCC(Nc2ccc(C)cc2)CC1	inactive: -0.69%
COc1cccc(C(c2nnnn2C(C)(C)C)N2CCC(n3c(=O)[nH]c4ccccc43)CC2)c1OC (stereo not drawn)	inactive: 10.3%
N/C(=N\O)c1c(N)no[n+]1[O-]	inactive: -2.4%
O=c1[nH]c2ccccc2n1C1CCN(C(c2cccs2)c2nnnn2C2CCCC2)CC1 (stereo not drawn)	inactive: 20.2%
O=C(OC1CN2CCC1CC2)C1c2ccccc2C=Cc2ccccc21 (stereo not drawn)	inactive: 2.13%
CCCCn1nnnc1C(c1cccc(OC)c1OC)N1CCC(n2c(=O)[nH]c3ccccc32)CC1 (stereo not drawn)	inactive: 41.1%
N#Cc1ccc(C(=O)NCC2(N3CCCCC3)CCCCC2)cc1	inactive: 2.33%
CC(C)(C)OC(=O)N1CCC(N(C(=O)c2ccccc2)c2ccc(Cl)cc2)CC1	inactive: -13.2%
CN(C)C1(CNC(=O)c2cccc(C#N)c2)CCCCC1	inactive: 5.27%
CCCN1CCC(Nc2cc(OC)cc(OC)c2)CC1	inactive: 31.9%
O=c1[nH]c2ccccc2n1C1CCN(C(c2ccccc2)c2nnnn2C2CCCC2)CC1 (stereo not drawn)	inactive: 0.95%
Cc1cc(N(CCCl)CCCl)ccc1C=O	inactive: 4.01%
c1ccc(CN2CCC(Nc3ccccc3)CC2)cc1	inactive: -6.13%
CC(C)(C)n1nnnc1C(c1cccc2ccccc12)N1CCC(n2c(=O)[nH]c3ccccc32)CC1 (stereo not drawn)	inactive: 45.1%
CCC(c1nnnn1C1CCCCC1)N1CCC(n2c(=O)[nH]c3ccccc32)CC1 (stereo not drawn)	inactive: 0.96%
COc1cccc(C(c2nnnn2C2CCCCC2)N2CCC(n3c(=O)[nH]c4ccccc43)CC2)c1OC (stereo not drawn)	inactive: 45.4%
CC(=O)N(c1ccccc1)C1CCNCC1	inactive: 8.68%

Structure (SMILES)	inhibition
COc1cc(OC)cc(C(=O)NCC2(N3CCCCC3)CCCCC2)c1	inactive: -10.2%
O=c1[nH]c2ccccc2n1C1CCN(C(c2ccnc3ccccc23)c2nnnn2C2CCCCC2)CC1 (stereo not drawn)	inactive: 11.4%
Fc1ccccc1NC1CCN(Cc2ccccc2)CC1	inactive: 1.94%
Cc1ccc(C(=O)NCC2(N3CCCCC3)CCCCC2)o1	inactive: -1.1%
Cc1ccc(NC2(C#N)CCN(Cc3ccccc3)CC2)cc1	inactive: -1.08%
COc1ccc(C(c2nnnn2C2CCCCC2)N2CCC(n3c(=O)[nH]c4ccccc43)CC2)cc1 (stereo not drawn)	inactive: 32.5%
CCN1CCC(Nc2cccc(F)c2)CC1	inactive: 22.9%
CC(C)(C)n1nnnc1C(c1ccnc2ccccc12)N1CCC(n2c(=O)[nH]c3ccccc32)CC1 (stereo not drawn)	inactive: -33.5%
Cc1ccccc1NC1(C#N)CCN(Cc2ccccc2)CC1	inactive: 18.5%
CN(C)c1ccc(C(=O)NCC2(N3CCCCC3)CCCCC2)cc1	inactive: -3.31%
Cn1c(=O)[nH]cc(N(CCCl)CCCl)c1=O	inactive: 0.43%
O=C(NCC1(N2CCCCC2)CCCCC1)c1ccco1	inactive: 3.35%
CN1CCC(Nc2ccc(F)c(Cl)c2)CC1	inactive: -6.79%
CCOc1ncccc1C(=O)NCC1(N2CCOCC2)CCCCC1	inactive: -8.26%
NN(c1ccccc1)C1CCN(CCc2ccccc2)CC1	inactive: -9.18%
O=C(O)C1(Nc2ccccc2)CCN(Cc2ccccc2)CC1	inactive: 1.34%
CC(C)(C)OC(=O)N1CCC(Nc2ccccc2)CC1	inactive: -7.57%
O=c1[nH]c2ccccc2n1C1CCN(C(c2cc3ccccc3o2)c2nnnn2C2CCCC2)CC1 (stereo not drawn)	inactive: 42.2%
CCCOc1ccc(C(=O)NCC2(N(C)C)CCCCC2)cc1	inactive: 14.2%
COc1cccc(C(=O)N(c2cc(C)cc(C)c2)C2CCN(C(=O)OC(C)(C)C)CC2)c1	inactive: 7.66%
COc1cccc(C(c2nnnn2C2CCCC2)N2CCC(n3c(=O)[nH]c4ccccc43)CC2)c1OC (stereo not drawn)	inactive: 31.6%
COc1cc(OC)cc(C(=O)NCC2(N3CCOCC3)CCCCC2)c1	inactive: -19.1%
CCC(CO)(C(=O)OC1CN2CCC1CC2)c1ccccc1 (stereo not drawn)	inactive: 18.9%
CN1CCC(Nc2ccc(Cl)cc2)CC1	inactive: -3.36%
